Assay outcomes deposited in PubChem by National Center for Advancing Translational Sciences (NCATS).
BCR signal inh: qHTS Assay to Find Inhibitors of Chronic Active B-Cell Receptor Signaling; ABC-DLBCL IkBa-CBG/CBR reporter, luminescence ratio, 4 h; Potency, µM (top dose mostly 46.1 µM), inactives show at the top dose activity change, negative = inhibition, actives largely listed as inhibitors; hit rate 0.05% among 340,000; AID 493014, 2011; active means well fitted inhibition curve with a large enough effect in the signal ratio, with a control signal flat, not every such curve was filed as active; inconclusive means small, poorly fitted or top-dose-only effect, or effect the other way, or a change in a side signal; the % refers to the signal ratio;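 further: plate controls were basal doxycycline-induced cells for no effect and cells given 10 µM MG132 for full effect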
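Cell line TMD8 (human ABC DLBCL), stably expressing tet-inducible CBG68-IkBa fusion and CBR; IMDM/0.5% FBS; cpd up to 46 uM; dox induction, 4 h, 37C/5% CO2; dual luminescence; green/red ratio; MG132 control.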
Luc counter: Counterscreen for Luciferase (Kinase-Glo TM) Inhibition; Luciferin 4-monooxygenase (Photuris pensylvanica), Q27757; Kinase-Glo luciferase, ATP luminescence, 8 min; Potency, µM (top dose mostly 38.3 µM), for the others: top-dose activity change, negative = inhibition, hits mostly inhibitors; hit rate 0.28% among 200,000; further: on the % scale 0 is the no-effect control and ±100 the full control effect; nearly all actives have a fitted effect of over 60% in size
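Compound is pinned into ATP-containing buffer (10 uM ATP, imidazole pH 7.2, 7 mM MgCl2). Kinase-Glo luciferase reagent is then added. Light output is recorded following an 8-min room-temperature incubation.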
Lamin A splicing: qHTS Assay for Modulators of Lamin A Splicing; HeLa LMNA splicing GFP/RFP minigene ratio, 48 h; Potency, µM (top dose mostly 46.1 µM), without a hit: top-dose ratio change, negative = inhibition, actives largely listed as inhibitors; hit rate 0.01% among 200,000; AID 1487, 2009; active means well fitted inhibition curve with a large enough effect in the signal ratio, with a control signal flat, not every such curve was filed as active; inconclusive means small, poorly fitted or top-dose-only effect, or effect the other way, or a change in a side signal; the % refers to the signal ratio; further: on the % scale 0 is the no-effect control and ±100 the full control effect
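S3 HeLa stable clones carrying a lamin A-EGFP splicing minigene plus DsRed2 were seeded at 600 cells/well in Opti-MEM with 2% FBS, pin-dosed and incubated 48 h at 37°C. Acumen cytometry (488 nm) gave the GFP/RFP total-intensity ratio.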
Rango-impB inh: qHTS Assay for Inhibitors of Rango (Ran-regulated importin-beta cargo) - Importin beta complex formation | Importin subunit beta-1 (Homo sapiens), Q14974 | Rango CFP/YFP FRET sensor + importin beta, 45 min | Potency, µM (doses to about 92.2 µM), without a hit: at the highest dose inhibition of complex formation | hit rate 0.031% among 340,000 | AID 540263, 2011; calls by dose curve;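 further: 0% = DMSO wells and 100% = buffer wells lacking importin beta; nearly all actives have a fitted effect of over 15% in size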
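FRET biosensor (snurportin 1 IBB flanked by EYFP and cerulean), 50 nM, with compound 5 min, then 0.125 microM importin beta in PBS, 1 mM DTT, 0.02% Tween-20, 0.1% BSA. CFP/YFP ratio read after 45 min at room temperature; pre-read flags interference.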
Rango dissoc inh: qHTS Assay for Inhibitors of RanGTP induced Rango (Ran-regulated importin-beta cargo) - Importin beta complex dissociation; Potency, µM (top dose mostly 46.1 µM), inactives show top-dose activity change, negative = inhibition; AID 540253, 2011; hit rate 0.071% among 340,000; Biochemical FRET Rango-importin beta, RanGTP-induced dissociation; Snurportin-1 (Homo sapiens) + GTP-binding nuclear protein Ran (Homo sapiens) + Importin …; calls by dose curve; further: % of control where 0% means no effect; nearly all actives have a fitted effect of over 45% in size
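Compounds sat 5 min at room temperature with 0.1 uM Rango biosensor plus 0.25 uM importin beta, then FRET pre-read. RanGTP-RCC1 (0.6 uM Ran, 2mM GTP, 0.2 uM RCC1) added for 45 min, and the CFP/YFP post-read measured blocked complex dissociation.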
Tb PFK block: qHTS Assay to Find Inhibitors of T. brucei phosphofructokinase | T. brucei PFK, ADP-Glo luminescence | AID 485367, 2010 | hit rate 0.17% among 330,000 | Potency, µM (titrated, usually from 57.5 µM), inactives show at the highest dose activity, negative = inhibition, actives largely listed as inhibitors | ATP-dependent 6-phosphofructokinase (Trypanosoma brucei brucei), O15648;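 further: 0% = uninhibited 1x PFK enzyme wells and -100% = no-enzyme wells; nearly all actives have a fitted effect of over 60% in size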
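Luminescent ADP detection (ADP-Glo, two-step: ATP depletion then ADP-to-ATP conversion for luciferase) reported PFK activity after 45 min room-temperature reaction of 1.25 nM enzyme with 0.5 mM F6P and 0.1 mM ATP at pH 8.0.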
Starred values were filed as active, the others as inactive; ? = inconclusive; / = not tested or not shown; [ ] = remark or other dose. Rows were chosen to be rich in hits. Some 0.44% of all compounds tested hit in one or more screens of this group. Unless noted, the call rests on the fitted dose curve; in most records, active means well fitted curve in the direction sought with a large enough effect; inconclusive means small, poorly fitted or top-dose-only effect, or another doubt; inactive means no such curve, though single readings can be large; an effect the other way counts as inactive or inconclusive. Potency means the concentration at half of the fitted maximal effect.

Amino acid sequences for entries named in this document (tags omitted).
Importin subunit beta-1 (Homo sapiens), Q14974, UniProt Q14974, whole entry, looked up: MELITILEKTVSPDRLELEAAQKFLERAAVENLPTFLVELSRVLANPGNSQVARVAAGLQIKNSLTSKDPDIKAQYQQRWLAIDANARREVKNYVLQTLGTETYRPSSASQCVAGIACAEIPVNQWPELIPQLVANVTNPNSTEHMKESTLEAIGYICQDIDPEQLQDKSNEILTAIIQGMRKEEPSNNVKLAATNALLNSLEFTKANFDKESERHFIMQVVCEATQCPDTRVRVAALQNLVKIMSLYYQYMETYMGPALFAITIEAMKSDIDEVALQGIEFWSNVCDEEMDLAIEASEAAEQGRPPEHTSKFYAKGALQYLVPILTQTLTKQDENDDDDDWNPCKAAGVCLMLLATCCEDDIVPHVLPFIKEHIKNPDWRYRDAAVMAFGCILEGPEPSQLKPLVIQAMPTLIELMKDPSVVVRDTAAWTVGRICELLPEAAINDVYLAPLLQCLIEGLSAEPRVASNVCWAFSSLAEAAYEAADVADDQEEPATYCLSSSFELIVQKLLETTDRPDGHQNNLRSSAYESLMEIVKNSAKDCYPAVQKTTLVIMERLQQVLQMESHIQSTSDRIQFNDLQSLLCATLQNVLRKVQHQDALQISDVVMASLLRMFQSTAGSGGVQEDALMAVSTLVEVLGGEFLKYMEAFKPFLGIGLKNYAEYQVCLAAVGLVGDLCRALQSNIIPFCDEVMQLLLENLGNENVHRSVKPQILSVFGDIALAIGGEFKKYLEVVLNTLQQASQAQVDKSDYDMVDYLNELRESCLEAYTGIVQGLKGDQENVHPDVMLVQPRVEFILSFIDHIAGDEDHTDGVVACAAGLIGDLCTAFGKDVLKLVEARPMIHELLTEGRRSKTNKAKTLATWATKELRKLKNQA

Every second line gives: BCR signal inh, Luc counter, Lamin A splicing, Rango-impB inh, Rango dissoc inh, Tb PFK block
#1 COc1ccc2c(c1)CC/C(=C\Nc1ccc3c(c1)OCO3)C2=O
→ ?, -9%, -22%, ?, ?, -10%
#2 COc1ccc(N/C=C2\CCOC2=O)cc1
→ 1%, 0%, -1%, 2%, 1%, -2%
#3 COc1ccc(N/C=C2\CCc3ccccc3C2=O)cc1
→ ?, 11µM*, -5%[46 µM], ?, ?, -20%
#4 O=C1/C(=C/Nc2ccc3c(c2)OCO3)CCc2ccccc21
→ ?, 2.8µM*, -1%, ?, ?, -22%
#5 COc1cc(OC)cc(-c2c(C#Cc3ccsc3)c3cc(-c4ccc(OC)c(F)c4)ccc3n2C)c1
→ 1%, /, /, ?, -13%, 1%
#6 Cc1c(NS(=O)(=O)c2ccc(Cl)c(C(=O)OC(C)C(=O)N3CCOCC3)c2)c(=O)n(-c2ccccc2)n1C (stereo not drawn)
→ ?, 1%, -3%[46 µM], 1%, 5%, 4%
#7 COc1ccc(NC(=O)c2ccccn2)cc1
→ ?, 13µM*, 4%, -3%, -15%, -13%
#8 COc1ccc(NC(=O)c2nc3ccccc3s2)cc1
→ ?, 8.9µM*, ?, ?, 2%, 0%
#9 Cn1c2ccccc2c(=O)c2ccc(NCCc3cccs3)cc21
→ 0%, /, /, ?, ?, -12%
#10 O=C(NCc1ccc(F)cc1)c1cccc(S(=O)(=O)N2CCCC2)c1
→ 3%, -3%, 4%, -3%, -14%, -2%
#11 O=C(NCc1ccc(F)cc1)c1cccc(S(=O)(=O)N2CCOCC2)c1
→ ?, /, /, 65µM*, -2%, 0%
#12 COC(=O)[C@H](CC(C)C)NC(=O)CCc1nnc(COc2ccccc2)o1
→ 9%, /, /, -1%, 10%, 2%
#13 CCn1c(=O)cc(SCC(=O)N2CCN(c3ccccn3)CC2)c2ccccc21
→ 16µM*, 2%, ?, -1%, 7%, 1%
#14 COC(=O)C(F)(Sc1c(C)n(C)n(-c2ccccc2)c1=O)C(F)(F)F (stereo not drawn)
→ 9%, 0%, 2%, 1%, 4%, -6%
#15 C(=C\c1ccco1)/c1nc2ccccc2[nH]1
→ ?, 13µM*, /, ?, -17%, -19%
#16 O=c1[nH]c(/C=C/c2ccc(Br)cc2)nc2ccccc12
→ ?, /, /, 0%, 3%, 0%
#17 C(=C\c1nc2ccccc2[nH]1)/c1ccccc1
→ ?, 3.5µM*, 1%, -3%, 8%, -24%
#18 Cc1ccccc1NC(=O)/C=C/c1ccc([N+](=O)[O-])s1
→ ?, -1%, ?, ?, 0.65µM*[inhibitor], -13%
#19 Cc1cc(C)cc(NC(=O)/C=C/c2ccc([N+](=O)[O-])s2)c1
→ ?, 0%, ?, ?, 1µM*, ?
#20 CC(=O)c1cccc(NC(=O)/C=C/c2ccc([N+](=O)[O-])s2)c1
→ ?, 9%, /, ?, ?, 0%
#21 CC(=O)c1ccc(OCCCC(=O)N2CCN(S(=O)(=O)c3cc(C)ccc3C)CC2)cc1
→ -2%, /, /, 0%, 8%, -9%
#22 CC1(C)CC(=O)C2=C(C1)OC(N)=C(C#N)C2c1cc2c(cc1[N+](=O)[O-])OCO2 (stereo not drawn)
→ 0%, 1%, -7%, ?, 16µM*, -13%
#23 CCOc1cc(C2C(C#N)=C(N)OC3=C2C(=O)CC(C)(C)C3)cc([N+](=O)[O-])c1O (stereo not drawn)
→ ?, -2%, 10%[9.22 µM], 0%, -3%, -2%
#24 CC1(c2nnc(-c3cccc(Cl)c3)o2)CC(c2ccccc2F)=NO1 (stereo not drawn)
→ /, /, /, 1%, -4%, /

For reference, some entries already given:
Every second line gives: BCR signal inh, Luc counter, Lamin A splicing, Rango-impB inh, Rango dissoc inh, Tb PFK block
#1 COc1ccc2c(c1)CC/C(=C\Nc1ccc3c(c1)OCO3)C2=O
→ ?, -9%, -22%, ?, ?, -10%
#2 COc1ccc(N/C=C2\CCOC2=O)cc1
→ 1%, 0%, -1%, 2%, 1%, -2%

Among those listed so far, these contain four or more nitrogen atoms.
Every second line gives: BCR signal inh, Luc counter, Lamin A splicing, Rango-impB inh, Rango dissoc inh, Tb PFK block
#6 Cc1c(NS(=O)(=O)c2ccc(Cl)c(C(=O)OC(C)C(=O)N3CCOCC3)c2)c(=O)n(-c2ccccc2)n1C (stereo not drawn)
→ ?, 1%, -3%[46 µM], 1%, 5%, 4%
#13 CCn1c(=O)cc(SCC(=O)N2CCN(c3ccccn3)CC2)c2ccccc21
→ 16µM*, 2%, ?, -1%, 7%, 1%
